# Assay results reported in publication PMC4209961 (Journal of nuclear medicine : official publication, Society …, 2013).
# Tested on: U87MG tumors
# Design: species or system athymic nude mice
# Conditions: mouse, in vivo
substance,measurement,value
^18F-FDG,tumor uptake of ^18F-FDG relative to that of ^18F-Alfatide II,2–4 fold
